Test results as given in article PMC3423582 (Bioorganic & medicinal chemistry letters, 2012).

test system: reactive oxygen species in BJ-TERT/LT/ST/RAS^V12 cells; assay: ROS levels by DCF fluorescence; settings: erastin 6 hrs, RSL3 6 hrs, compound 27 18 hrs

How did the “ROS levels (DCF fluorescence)” value turn out when `CCOC(=O)C1c2c(c3ccccc3n2C)CCN1C(=O)OC` (stereo not drawn) [Compound 27] was run?
Its value is “induced increases in DCF fluorescence”.

Which “ROS levels (DCF fluorescence)” value does the source give for `COC(=O)c1ccc(C2c3[nH]c4ccccc4c3CC(C(=O)OC)N2C(=O)CCl)cc1` (stereo not drawn) [RSL3] here?
The value was “induced increases in DCF fluorescence”.

`CCOc1ccccc1-n1c(C(C)N2CCN(C(=O)COc3ccc(Cl)cc3)CC2)nc2ccccc2c1=O` (stereo not drawn) [erastin] was tested. Which “ROS levels (DCF fluorescence)” value did it give?
Its value is “induced increases in DCF fluorescence”.
